Holding throughout (assay type): tissue-based
Details in all cases: dose 5-15 µM, time 28.0 hrs

By UniProt entry, the sequences of proteins in these tests, tags left out.
UniProt Q9NPP4, whole entry: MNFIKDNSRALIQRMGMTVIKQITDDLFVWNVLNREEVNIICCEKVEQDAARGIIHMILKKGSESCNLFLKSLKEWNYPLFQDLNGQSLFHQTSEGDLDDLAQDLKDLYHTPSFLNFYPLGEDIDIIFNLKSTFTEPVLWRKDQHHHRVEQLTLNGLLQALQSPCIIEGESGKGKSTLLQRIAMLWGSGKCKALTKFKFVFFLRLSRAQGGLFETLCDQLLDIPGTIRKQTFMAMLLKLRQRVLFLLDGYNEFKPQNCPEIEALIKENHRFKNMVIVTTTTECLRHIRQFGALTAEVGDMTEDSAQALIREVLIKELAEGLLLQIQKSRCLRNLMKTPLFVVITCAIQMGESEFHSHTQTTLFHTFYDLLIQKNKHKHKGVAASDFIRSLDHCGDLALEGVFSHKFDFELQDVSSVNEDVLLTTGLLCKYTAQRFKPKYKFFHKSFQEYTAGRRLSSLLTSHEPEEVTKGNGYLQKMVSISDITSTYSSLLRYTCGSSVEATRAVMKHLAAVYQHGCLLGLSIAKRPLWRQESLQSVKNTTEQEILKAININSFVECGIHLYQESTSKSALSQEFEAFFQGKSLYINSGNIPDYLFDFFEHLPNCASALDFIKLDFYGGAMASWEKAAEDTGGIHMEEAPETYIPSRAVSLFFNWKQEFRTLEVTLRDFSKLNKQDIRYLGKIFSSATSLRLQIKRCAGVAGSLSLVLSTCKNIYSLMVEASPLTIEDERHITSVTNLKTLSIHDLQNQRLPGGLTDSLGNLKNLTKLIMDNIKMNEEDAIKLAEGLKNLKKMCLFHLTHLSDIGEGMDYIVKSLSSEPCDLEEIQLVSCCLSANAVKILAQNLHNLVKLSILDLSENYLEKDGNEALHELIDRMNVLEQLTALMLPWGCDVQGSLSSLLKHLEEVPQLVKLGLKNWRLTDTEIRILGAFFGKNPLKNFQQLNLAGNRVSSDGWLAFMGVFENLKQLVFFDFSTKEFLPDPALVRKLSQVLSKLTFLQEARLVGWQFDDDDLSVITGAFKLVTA
UniProt Q8R4B8, whole entry: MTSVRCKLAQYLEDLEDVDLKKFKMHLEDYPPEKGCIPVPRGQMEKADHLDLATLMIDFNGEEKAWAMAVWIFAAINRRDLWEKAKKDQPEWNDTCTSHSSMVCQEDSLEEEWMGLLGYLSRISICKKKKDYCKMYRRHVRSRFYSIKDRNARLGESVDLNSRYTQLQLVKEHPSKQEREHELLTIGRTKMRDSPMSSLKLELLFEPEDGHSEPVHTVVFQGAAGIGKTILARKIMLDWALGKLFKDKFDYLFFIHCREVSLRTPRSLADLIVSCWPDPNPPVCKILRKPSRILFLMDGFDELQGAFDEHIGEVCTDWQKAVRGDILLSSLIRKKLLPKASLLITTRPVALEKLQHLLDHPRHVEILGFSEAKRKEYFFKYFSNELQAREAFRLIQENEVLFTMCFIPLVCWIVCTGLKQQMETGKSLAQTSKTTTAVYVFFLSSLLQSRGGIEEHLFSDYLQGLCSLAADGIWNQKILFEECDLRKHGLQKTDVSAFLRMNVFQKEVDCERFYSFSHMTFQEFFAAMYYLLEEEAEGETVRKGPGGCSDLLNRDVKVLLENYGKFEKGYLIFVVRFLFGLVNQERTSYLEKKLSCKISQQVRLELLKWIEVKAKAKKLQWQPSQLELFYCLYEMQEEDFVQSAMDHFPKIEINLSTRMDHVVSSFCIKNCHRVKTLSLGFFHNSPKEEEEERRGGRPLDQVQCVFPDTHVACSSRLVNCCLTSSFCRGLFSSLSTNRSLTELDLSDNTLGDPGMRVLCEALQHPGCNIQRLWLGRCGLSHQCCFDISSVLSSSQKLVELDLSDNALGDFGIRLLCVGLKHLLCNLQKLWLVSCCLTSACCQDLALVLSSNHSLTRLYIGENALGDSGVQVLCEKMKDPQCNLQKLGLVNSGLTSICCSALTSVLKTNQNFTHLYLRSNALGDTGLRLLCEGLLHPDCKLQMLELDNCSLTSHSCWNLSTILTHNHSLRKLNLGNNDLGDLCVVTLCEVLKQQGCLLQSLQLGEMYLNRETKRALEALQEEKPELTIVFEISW

Test [1] deals with NLR family CARD domain-containing protein 4 (Homo sapiens) (UniProt Q9NPP4). Nature of the test: Inhibition of NLRC4 in PMA-stimulated human THP-1 cells assessed as reduction in IL-1beta production at 5 to 15 uM pre-treated for 24 hrs followed by stimulation with LPS for 3 hrs and Salmonella typhimurium flagellin for 1 hr by ELISA analysis.
Test [2] addresses T1, Interferon-inducible protein AIM2 (Homo sapiens) (UniProt O14862).
T1 sequence (whole entry): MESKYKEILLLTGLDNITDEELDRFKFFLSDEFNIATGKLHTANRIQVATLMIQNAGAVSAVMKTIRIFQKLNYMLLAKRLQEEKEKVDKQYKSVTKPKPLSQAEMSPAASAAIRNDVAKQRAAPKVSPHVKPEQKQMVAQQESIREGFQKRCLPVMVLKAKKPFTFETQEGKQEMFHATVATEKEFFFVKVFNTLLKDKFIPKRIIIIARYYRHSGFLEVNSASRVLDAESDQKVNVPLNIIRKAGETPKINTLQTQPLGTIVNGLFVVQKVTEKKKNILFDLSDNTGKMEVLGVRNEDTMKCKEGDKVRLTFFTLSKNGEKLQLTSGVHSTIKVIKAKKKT
Nature of the test: Inhibition of AIM2 in PMA-stimulated human THP-1 cells transfected with poly(dA:dT) assessed as reduction in IL-1beta production at 5 to 15 uM pre-treated for 24 hrs followed by stimulation with LPS for 4 hrs by ELISA analysis. (An ELISA detects its analyte on a solid surface through an enzyme-linked reagent.)

Test [3] has as its target NACHT, LRR and PYD domains-containing protein 3 (Mus musculus) (UniProt Q8R4B8). Nature of the test: Inhibition of NLRP3 inflammasome activation in PMA-stimulated mouse BMDM cells assessed as reduction in IL-1beta secretion at 5 to 15 uM pre-treated for 24 hrs followed by stimulation with LPS for 3 hrs and ATP for 1 hr by ELISA analysis.

The source made the active and inactive calls. The rule behind the calls is not given here.

For `CC(=O)c1ccc(S(=O)(=O)N(c2ccc3c(c2)N(S(C)(=O)=O)CCC3)S(=O)(=O)c2ccc(C(C)=O)cc2)cc1`, the inhibition entry in test [1] and in test [2] was “inactive” each time. In addition, in test [3], the inhibition entry was “Active”.

(Values after ChEMBL document CHEMBL4765468, “Development of Novel Tetrahydroquinoline Inhibitors of NLRP3 Inflammasome for Potential Treatment of DSS-Induced Mouse Colitis” (J Med Chem, 2021).)
